Protein sequences, listed by entry. Tags and fused reporters are not part of them. Chains listed by the source or under a name are the forms on record and can include a tag or linker.
UniProt Q9UM73, with tags, fused parts or gaps: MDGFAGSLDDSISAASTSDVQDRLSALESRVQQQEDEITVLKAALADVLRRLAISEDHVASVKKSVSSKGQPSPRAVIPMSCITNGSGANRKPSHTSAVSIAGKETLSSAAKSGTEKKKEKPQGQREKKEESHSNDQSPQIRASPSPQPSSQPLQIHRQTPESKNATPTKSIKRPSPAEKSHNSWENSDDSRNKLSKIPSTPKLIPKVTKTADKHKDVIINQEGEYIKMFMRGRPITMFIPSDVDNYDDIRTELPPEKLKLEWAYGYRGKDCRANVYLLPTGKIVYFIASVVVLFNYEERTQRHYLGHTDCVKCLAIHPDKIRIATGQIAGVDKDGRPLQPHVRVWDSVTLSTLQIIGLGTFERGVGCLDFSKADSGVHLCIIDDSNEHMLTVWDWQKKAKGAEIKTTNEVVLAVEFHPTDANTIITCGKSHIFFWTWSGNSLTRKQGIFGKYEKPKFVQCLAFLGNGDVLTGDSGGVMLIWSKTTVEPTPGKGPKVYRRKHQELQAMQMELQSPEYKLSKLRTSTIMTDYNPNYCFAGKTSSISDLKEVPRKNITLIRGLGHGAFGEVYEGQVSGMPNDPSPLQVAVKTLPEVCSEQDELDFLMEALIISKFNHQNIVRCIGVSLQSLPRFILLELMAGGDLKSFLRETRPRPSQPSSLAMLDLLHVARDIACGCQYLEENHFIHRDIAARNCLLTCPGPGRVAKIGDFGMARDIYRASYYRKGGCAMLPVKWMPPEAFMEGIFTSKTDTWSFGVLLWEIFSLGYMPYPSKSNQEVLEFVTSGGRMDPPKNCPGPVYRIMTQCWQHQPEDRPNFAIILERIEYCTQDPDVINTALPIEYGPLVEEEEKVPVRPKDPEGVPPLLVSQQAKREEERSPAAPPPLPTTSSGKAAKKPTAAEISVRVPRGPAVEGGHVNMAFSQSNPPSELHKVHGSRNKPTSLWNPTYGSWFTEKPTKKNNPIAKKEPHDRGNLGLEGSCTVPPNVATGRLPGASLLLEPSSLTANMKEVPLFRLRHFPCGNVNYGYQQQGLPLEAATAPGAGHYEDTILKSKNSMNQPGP

In patent US20230158157A1, “POTENT AND SELECTIVE DEGRADERS OF ALK” (DANA-FARBER CANCER INSTITUTE, INC., priority 2020, published 2023):

Target: T1, EML4-ALK (Homo sapiens, UniProt Q9UM73)
T1 construct: endogenous in cells; host or cells: H3122 (NSCLC), single-cell clone after CRISPR knock-in of HiBit; the other entry of the earlier key: EML4 (Q9HC35, Echinoderm microtubule-associated protein-like 4)
Assay: EML4-ALK HiBit degradation assay in CRISPR-tagged H3122 cells (Nano-Glo HiBit Lytic Detection)
Type: cell-based
Conditions: 16 hours
Method: (§1) NSCLC cell line H3122 was subjected to CRISPR to express EML4-ALK with HiBit-tag on its c-terminal. Single-cell clone was selected and expanded for the following assays that monitor endogenous EML4-ALK level in high throughput manner. Cells were seeded in 384-well white Tissue-culture plates at 3000 cells/well for 8 hours. […] HiBit signal was assessed using Nano-Glo® HiBit Lytic Detection System (Promega™). Degrader-treated was normalized by DMSO-treated controls and DC50 and Dmax were generated by GraphPad Prism® 8.0.
as §1, with “its c-terminus. A single-cell” for “its c-terminal. Single-cell”, “Degrader-treated cells were” for “Degrader-treated was”
as §1, with “its C-terminus. A single-cell” for “its c-terminal. Single-cell”, “Degrader-treated cells were” for “Degrader-treated was”

Row | SMILES | DC50 (Table 2, first DC50 column, H3122 EML4-ALK-HiBit, read-out: Degradation DC50) [nM] | Dmax (NCI-H3122, Table 3, H3122 cells) [%] | DC50 (read-out: ALK Degradation (H3122 cells) DC50, Table 3, H3122 cells) [nM]
1 | COc1cc(CCNCCCCCC#Cc2cccc3c2C(=O)N(C2CCC(=O)NC2=O)C3=O)c(C)cc1Nc1ncc(Cl)c(Nc2ccccc2P(C)(C)=O)n1 (stereo not drawn) [compound 19, 4-(7-((4-((5-chloro-4-((2-(dimethylphosphoryl)phenyl)amino)pyrimidin-2-yl)amino)-5-methoxy-2-methylphenethyl)amino)hept-1-yn-1-yl)-2-(2,6-dioxopiperidin-3-yl)isoindoline-1,3-dione] | 160 | – | –
2 | COc1cc(CCNCCCCCC#Cc2ccc3c(c2)CN(C2CCC(=O)NC2=O)C3=O)c(C)cc1Nc1ncc(Cl)c(Nc2ccccc2S(=O)(=O)C(C)C)n1 (stereo not drawn) [compound 92] | – | 93 | 17

Like-named read-outs stand apart in the source and are kept apart here.
